Target: T1, sbAvd-1 (steroid-binding avidin mutant) (Gallus gallus, UniProt P02701, D37R/L38M/G39N/S40H)
T1 construct: gene AVD; full avidin core, homotetramer, produced in E. coli
Test: SPR competition on testosterone-BSA chip, […] inhibitor

By UniProt entry, the sequences of proteins in these tests, tags left out. Residues count along the entry.
UniProt P02701, 25-152 D37R/L38M/G39N/S40H: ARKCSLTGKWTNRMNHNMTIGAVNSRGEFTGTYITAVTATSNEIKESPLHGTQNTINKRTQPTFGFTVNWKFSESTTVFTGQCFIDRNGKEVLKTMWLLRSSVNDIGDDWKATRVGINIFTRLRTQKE

C[C@]12CCC(=O)C=C1CC[C@@H]1[C@@H]2CC[C@]2(C)C(=O)CC[C@@H]12 [androstenedione]
SPR competition on testosterone-BSA chip, 50 μM inhibitor: The binding of the sbAvd-1 protein was totally inhibited by dehydroepiandrosterone, androstenedione, and biotin.
